Experimental data: ChEMBL document CHEMBL1123886 (J Med Chem, 1987)

Test system: Calf thymus DNA
Test: Binding constant for DNA by ethidium bromide displacement
Type: nucleic-acid assay
Settings: Bos taurus

## CNc1cc(NS(C)(=O)=O)ccc1Nc1c2ccccc2nc2ccccc12
  Log K: 6.42
